These results are taken from PubChem BioAssay AID951 (NMMLSC, 2007).

Amino acid sequences for entries named in this document (tags omitted).
UniProt Q9HD36, whole entry: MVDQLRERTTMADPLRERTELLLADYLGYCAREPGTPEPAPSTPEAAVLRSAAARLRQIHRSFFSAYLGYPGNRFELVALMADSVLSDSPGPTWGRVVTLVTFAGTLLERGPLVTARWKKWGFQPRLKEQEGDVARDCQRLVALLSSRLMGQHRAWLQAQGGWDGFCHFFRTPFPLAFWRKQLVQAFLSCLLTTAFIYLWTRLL

This is a selection; strong and weak results do not stand in their true shares. Some results for these compounds are left out of this collection, so the calls shown say nothing about other tests. The source made the active and inactive calls. No stated cut-off is given here; in the data, active means inhibition above about 40%.

In the experiment the target is Bcl-2-like protein 10 (Homo sapiens) (UniProt Q9HD36). Nature of the experiment: Bcl-B and Bim peptide interaction disruptors – biochemical, multiplexed, human Bcl-2 family, primary screen (AID 951).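 Further: 0% = tracer peptide without compound and 100% = reference inhibitor peptide.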 Particulars: bead-based flow cytometry, Bim peptide-Bcl-B binding; at 10 µM; hits give high values. For orientation: Flow cytometry measures light scatter and fluorescence of single cells or particles in a stream.
For orientation: inhibition means the relative decrease from the control value, in per cent. Regarding `CN(C)c1cccc(C(=O)NCC2(N(C)C)CCCCC2)c1`, the inhibition is inactive: -8%.

As to `O=C(OC1CN2CCC1CC2)C(CO)(c1ccccc1)c1ccccc1` (centres undefined), the inhibition is inactive: -10%.

For `COc1cccc(C(=O)NCC2(N3CCCCC3)CCCCC2)c1`, the inhibition is inactive: -2%.

Regarding `CCN1CCCC(OC(=O)C2(O)c3ccccc3C=Cc3ccccc32)C1` (centres undefined), the inhibition was inactive: -8%.

For the compound `C=CCN1CCN(CCOC(=O)C(O)(c2ccccc2)c2ccccc2)CC1`, the inhibition is inactive: 1%.

With `CN(C)C1CCCC1OC(=O)C(O)(c1ccccc1)c1ccccc1` (centres undefined), the inhibition is inactive: -10%.

With `Cc1ccccc1C(=O)NCC1(N2CCCCC2)CCCCC1`, the inhibition is inactive: 2%.

Turning to `CC(C)N1C(=O)CC2(CCN(CCOC(=O)C(O)(c3ccccc3)c3ccccc3)CC2)C1=O`, the inhibition is inactive: -1%.

Take `O=C(NCC1(N2CCCCC2)CCCCC1)c1cc([N+](=O)[O-])ccc1Cl`: the inhibition was inactive: 0%.
